Assay results as given in US12478617B2, “Lipidated peptide inhibitors of interleukin-23 receptor” (JANSSEN BIOTECH, INC., priority 2021, dated 2025).

Columns and labels:
[1] = target: T1, peripheral blood mononuclear cells (PBMCs) (Homo sapiens, UniProt Q5VWK5); assay: PBMC pSTAT3 assay; type: cell-based; conditions: read-out: PBMC pSTAT3 IC50; PBMCs from healthy donors, anti-CD3/IL-1β cultured; peptide 30 min, then IL-23 5 ng/mL for 30 min; phosphorylated STAT3 (Meso Scale Discovery)
T1 sequence (Q5VWK5 24-629): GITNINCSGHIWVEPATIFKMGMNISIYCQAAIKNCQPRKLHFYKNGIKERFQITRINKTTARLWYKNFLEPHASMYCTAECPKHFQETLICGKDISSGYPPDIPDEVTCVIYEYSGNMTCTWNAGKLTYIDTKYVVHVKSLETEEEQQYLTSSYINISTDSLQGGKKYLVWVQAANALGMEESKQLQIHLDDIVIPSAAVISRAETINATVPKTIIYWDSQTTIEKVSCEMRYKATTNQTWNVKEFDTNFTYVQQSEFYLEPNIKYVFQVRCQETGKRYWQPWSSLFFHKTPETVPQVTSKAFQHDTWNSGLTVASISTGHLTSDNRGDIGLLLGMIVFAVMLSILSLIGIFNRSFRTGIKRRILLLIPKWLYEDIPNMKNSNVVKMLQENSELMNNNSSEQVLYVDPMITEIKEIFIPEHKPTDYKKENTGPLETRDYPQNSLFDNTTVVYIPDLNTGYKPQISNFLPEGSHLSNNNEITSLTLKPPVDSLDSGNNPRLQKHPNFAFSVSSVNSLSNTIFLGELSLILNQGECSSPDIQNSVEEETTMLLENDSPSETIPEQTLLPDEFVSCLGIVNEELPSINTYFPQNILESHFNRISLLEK
From the text: IL-23 binding to IL-23 receptors results in the activation of the Signal Transducer and Activator of Transcription 3 (STAT3) by phosphorylation and downstream signaling events. Accordingly. the ability of the inhibitors described herein to block IL-23 action can be assessed by monitoring the status of STAT3 activation in response to IL-23. This may be accomplished in reporter cell assays or in intact cells such as peripheral blood mononuclear cells (PBMCs).
Cryopreserved peripheral blood mononuclear cells (PBMCs) from healthy donors were thawed and washed twice in ImmunoCult-XF T cell expansion medium (XF-TCEM) supplemented with CTL anti-aggregate wash. The cells were counted, resuspended at 2×10^5 cells per mL XF-TCEM supplemented with penicillin/streptomycin and 100 ng/mL IL-1β (BioLegend, 579404), and cultured in tissue culture flasks coated with anti-CD3 (eBioscience, 16-0037-85 or BD Pharmingen, 555329) at 37° C. in 5% CO2. On day 4 of culture, PBMCs were collected, washed twice in RPMI-1640 supplemented with 0.1% BSA (RPMI-BSA), and incubated in RPMI-BSA in upright tissue culture flasks for 4 hours at 37° C. in 5% C02. Following this ‘starvation,’ a total of 6×10^4 cells in 30 μL RPMI-BSA was transferred into each well of a 384-well plate pre-spotted with peptide in DMSO. The cells were incubated for 30 minutes prior to the addition of IL-23 at a final concentration of 5 ng/mL. The cells were stimulated withcytokine for 30 minutes at 37° C. in 5% CO2, transferred onto ice for 10 minutes, and lysed. Cell lysates were stored at −80° C. until phosphorylated STAT3 was measured using the phospho-STAT panel kit (Meso Scale Discovery, K15202D).

IL-23R = target: T2, IL-23R (Homo sapiens, UniProt Q5VWK5); assay: IL23R Reporter Assay; type: cell-based; conditions: HEK293 cells containing IL-23R, IL-12Rβ1 and STAT-inducible firefly luciferase reporter; 10 ng/mL IL-23 (EC90); 5 h at 37° C.
T2 construct: HEK293 cells containing IL-23R, IL-12RP31 and a firefly luciferase reporter gene driven by a STAT-inducible promoter (Promega); host or cells: HEK293
T2 sequence (Q5VWK5 24-629): T1 sequence (Q5VWK5 24-629)

| Substance | IC50 [1] [nM] | IC50 (IL-23R) [nM] |
| --- | --- | --- |
| HOC18gEPEG2PEG2-r-Pen*-N-T-7MeW-K(Ac)-Pen*-AEF-2Nal-THP-K(PEG2PEG2gEC180H)-N-3Pya-Sar-CONH2(*Pen-Pen form disulfide bond) [Example 12] | 5 | 0.29 |
| HOC18gEPEG2PEG2-r-Pen*-N-T-7MeW-K(Ac)-Pen*-AEF-2Nal-THP—K(Ac)-N-3Pva-Sar-CONH2(*Pen-Pen form disulfide bond) [Example 11] | 1.3 | 0.044 |
| MeCO-Pen*-N-T-7MeW-K(Ac)-Pen*-AEF-2Nal-THP-K(PEG2PEG2gEC180H)-N-3Pva-Sar-CONH2 (*Pen-Pen form disulfide bond) [Example 4] | 1.2 | 0.066 |
| MeCO-k(PEG2PEG2SP6gEC180H)-Pen*-N-T-7MeW-K(Ac)-Pen*-AEF-2Nal-THP—K(Ac)-N-3Pva-Sar-CONH2(*Pen-Pen form disulfide bond) [Example 7] | 0.42 | 0.024 |
| MeCO-k(PEG2PEG2gE(c)C18OH)-Pen*-N-T-7MeW-K(Ac)-Pen*-AEF-2Nal-THP-K(Ac)-N-3Pya-Sar-CONH2 [Example 16] | 0.18 | 0.014 |
| MeCO-k(PEG2PEG2gEC180H)-Pen*-N-T-7MeW-K(Ac)-Pen*-AEF-2Nal-THP-K(Ac)-N-3Pva-N(4AmBenzyl)Gly-CONH2(*Pen-Pen form disulfide bond [Example 13] | 0.27 | 0.064 |
| MeCO-k(PEG2PEG2gEDab(mXOH)2)-Pen*-N-T-7MeW-K(Ac)-Pen*-AEF-2Nal-THP—K(Ac)-N-3Pva-Sar-CONH2(*Pen-Pen form disulfide bond) [Example 15] | 0.42 | 0.054 |
| MeCO-k(PEG2PEG22EC160H)-Pen*-N-T-7MeW-K(Ac)-Pen*-AEF-2Nal-THP-K(gEC16)-N-3Pva-Sar-CONH2(*Pen-Pen form disulfide bond) [Example 10] | 4.8 | 1.88 |
| MeCO-k(PEG2PEG22EmXOH)-Pen*-N-T-7MeW-K(Ac)-Pen*-AEF-2Nal-THP-K(PEG2PEG2gEmXOH)-N-3Pva-Sar-CONH2(*Pen-Pen form disulfide bond) [Example 9] | 0.23 | 0.035 |
| MeCO-r-Pen*-N-T-7MeW-K(Ac)-Pen*-AEF(PEG2PEG2gEC180H)-2Nal-THP—K(Ac)-N-3Pva-Sar-CONH2 (*Pen-Pen form disulfide bond) [Example 6] | 0.7 | 0.055 |
| MeCO-r-Pen*-N-T-7MeW-K(Ac)-Pen*-AEF-2Nal-THP-E-N-3Pva-NMeK(PEG2PEG2gEC180H)-CONH2 (*Pen-Pen form disulfide bond) [Example 3] | 5.7 | 0.023 |
| MeCO-r-Pen*-N-T-7MeW-K(Ac)-Pen*-AEF-2Nal-THP—K(Ac)-N— 3Pva-N(PEG2PEG2gEC180H)Glv-CONH2(*Pen-Pen form disulfide bond) [Example 14] | 0.78 | 0.2 |
